In brackets after ≈: the same amount, converted by molar mass.
Assay: physchem
Settings: 37° C., x ± s, n = 3

C[C@H]1CCC/C=C/[C@@H]2C[C@H](O)C[C@H]2[C@H](OC(=O)/C=C/c2cccnc2)/C=C/C(=O)O1 [Compound 16b]
solubility at 24 h (5% DMSO + 95% H2O): 0.73 ± 0.13 mg/mL
solubility at 24 h (Acetone): 30.3 ± 0.52 mg/mL (≈ 73.6 mM)
